Test results from patent publication US20190153089A1 (NUMAB INNOVATION, published 2019).

The chains behind the UniProt entries cited, without tags or fusion partners. Residues count along the entry.
UniProt P01375, 77-233 limits assumed: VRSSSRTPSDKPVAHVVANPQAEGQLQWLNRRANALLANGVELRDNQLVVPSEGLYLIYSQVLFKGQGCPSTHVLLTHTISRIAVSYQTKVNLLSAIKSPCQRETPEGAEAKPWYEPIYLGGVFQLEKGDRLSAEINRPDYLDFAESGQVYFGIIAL

Molecular target: recombinant human TNFα (Peprotech, Cat. No. 300-01) (human, UniProt P01375 77-233, biotinylated in the inhibition and competition ELISAs; unlabelled elsewhere)
Experiment: cell-based or functional assay

IC50 to neutralize TNFα-induced apoptosis of L929 fibroblasts (100 pM TNFα, screening format): 36.2 ng/mL
B1: infliximab (antibody, V domains shown)
VH: EVKLEESGGGLVQPGGSMKLSCVASGFIFSNHWMNWVRQSPEKGLEWVAEIRSKSINSATHYAESVKGRFTISRDDSKSAVYLQMTDLRTEDTGVYYCSRNYYGSTYDYWGQGTTLTVSS
VL: DILLTQSPAILSVSPGERVSFSCRASQFVGSSIHWYQQRTNGSPRLLIKYASESMSGIPSRFSGSGSGTDFTLSINTVESEDIADYYCQQSHSWPFTFGSGTNLEVKR
